Columns and labels:
[1] = target: CRABP
[2] = system: HL60R cells; assay: Differentiation of HL60R cells (NBT); assay type: cell-based; conditions: concentrations up to 10 µM
Description: Retinoids are known to differentiate human promyelocytic leukemia cells.

SMILES | Kd [1] [nM] | differentiation (NBT) of HL60R cells [2]
CC1=C(/C=C/C(C)=C/C=C/C(C)=C/C(=O)O)C(C)(C)CCC1 | 20 | –
CC1=C(/C=C/C(C)=C\C=C\C(C)=C\C(=O)O)C(C)(C)CCC1 [9-cis-retinoic acid] | – | resistant to differentiation

Source: EP0807624B1, “RETINOIC ACID DERIVATIVES” (THE SALK INSTITUTE FOR BIOLOGICAL STUDIES, priority 1991, dated 1993)
